Test results published in ChEMBL document CHEMBL4813982, “Novel pyrazolo[4,3-d]pyrimidine microtubule targeting agents (MTAs): Synthesis, structure-activity relationship, in vitro and in vivo evaluation as antitumor agents” (Bioorg Med Chem Lett, 2021).

Assays:
NCI/ADR-RES = assay: Antiproliferative activity against human NCI/ADR-RES cells overexpressing Pgp; format: functional, cell-based
[1] = Resistance ratio of IC50 for antiproliferative activity against human NCI/ADR-RES cells expressing Pgp to IC50 for antiproliferative activity against human OVCAR-8 cells; format: functional

With `CC(=O)O[C@H]1C(=O)[C@@]2(C)[C@H]([C@H](OC(=O)c3ccccc3)[C@]3(O)C[C@H](OC(=O)[C@H](O)[C@@H](NC(=O)c4ccccc4)c4ccccc4)C(C)=C1C3(C)C)[C@]1(OC(C)=O)CO[C@@H]1C[C@@H]2O` [PACLITAXEL] the IC50 (NCI/ADR-RES) was 800 nM and the “Ratio IC50” value [1] was 150.
